Assay results reported in US11576981B2, “Acyl hydrazone linkers, methods and uses thereof” (Ontario Institute for Cancer Research (OICR), priority 2017, dated 2023).

Tested on: SKOV3 ovarian cancer cell line
Experiment: Cytotoxicity against SKOV3 (CellTiter-Glo ATP viability)
Assay type: cell-based
Conditions: ATP content
Method: SKOV3 ovarian cells are incubated with the effectors for a period corresponding to 2 to 3 times their estimated doubling time and the amount of viable cells is determine by measuring ATP content in the wells. ATP has been widely accepted as a valid marker of viable cells. When cells lose membrane integrity, they lose the ability to synthesize ATP and endogenous ATPases rapidly deplete any remaining ATP from the cytoplasm. All ADCs are diluted in DPBS to 6× the highest concentration tested, followed by 10 3-fold serial dilutions in DPBS for a total of 11 concentration points. Each point is added to triplicate wells. DPBS is added in wells to measure the maximum growth. Cells are diluted at their appropriate seeding density (ranging from 150 to 1000 cells per well) in complete media supplemented with glutamine 2 mM, serum and antibiotic cocktail. […] Total ATP is measured using CellTiter-Glo reagent from Promega as recommended by the supplier. […] Signal output is measured on a luminescence plate reader (envision, Perkin Elmer) set at an integration time of 0.1 sec. […]
Each concentration point (S) is normalized to the negative control wells (NC) and expressed as % survival (NC−S/NC×100). Potency (IC50) and efficacy are calculated from a non-linear curve fit of the points versus log of the concentrations without constrain on the slope. Refined data are analysed using Prism software. […]

With Trastuzumab-SMCC-DM1 the pIC50 was 10.42.

pIC50: −log10 of the molar value.
